From paper PMC7211195, “The influence of the coadministration of the p-glycoprotein modulator elacridar on the pharmacokinetics of lapatinib and its distribution in the brain and cerebrospinal fluid” (Investigational New Drugs, 2019)

Test: Lapatinib pharmacokinetics in rat blood plasma (BP), HPLC-MS/MS, noncompartmental analysis
Format: in vivo, rats
Settings: for Clapatinib in BP, single rat: listed as Lapatinib
Method: This study was conducted on rats, which are a promising model to predict P-gp-based drug-drug interactions at the human BBB [15]. The animals were allowed to acclimate for one week before the beginning of the experiments. Adult male Wistar-strain rats (weight 470–525 g) were used in the study. The animals were maintained under standard breeding conditions with a 12/12 h light-dark cycle (lights on at 6.00 a.m., lights off at 6.00 p.m.) at constant room temperature (23 ± 2 °C), relative humidity (55 ± 10%) and ad libitum access to food and water. The experimental protocol for this study was reviewed and approved by the Local Ethics Committee. To obtain consistent data, the study was based on the required minimum number of animals and observation time. […] Three rats were used at each time point (n = 3). In total, the research was conducted on 66 animals (n = 33 in the experimental group and n = 33 in the control group).
Elacridar was freshly dissolved in a vehicle at an initial concentration of 20 mg/mL. […] A volume of 80 μL of blood was collected from each rat by cutting off a piece of its tail. The blood samples were collected into heparinized test tubes at the following time points: […], and they were immediately centrifuged at 2880 g for 10 min at 4 °C. The anaesthetized rats (anaesthetized by intramuscular administration of 50 mg/kg ketamine and 10 mg/kg xylazine) were prepared for cisterna magna puncture. The hair over the puncture was removed and the skin was disinfected with alcohol. The animals were placed in a recumbent position with an elevated rear part of the body. The animals’ heads were slightly flexed and immobilized with the operator’s left hand. The space between the occiput rostrally and the atlas (C1) of the spinal column caudally was gently palpated with the left thumb. A 0.7 × 20 G needle with polyethylene tubing (Terumo Poland, Warsaw, Poland) was gently inserted at an approximate angle of 80–90° through the skin with the operator’s right hand into the midsagittal region. The moment that dura mater perforation was perceptible, a small amount of CSF was found in the needle tubing. To sample additional CSF, a 1 mL insulin syringe (Becton Dickinson, Warsaw, Poland) was used to collect 80–120 μL of CSF by very gentle aspiration. Only clear CSF was collected for further analysis. […] The animals’ brains were immediately dissected, washed in 0.9% NaCl and divided along the longitudinal axis. One of the brain hemispheres was again rinsed three times with 5 mL of 0.9% NaCl, weighed and homogenized with 0.9% NaCl (4 mL per 1 g of BT) in an Ultra-Turrax homogenizer (Witko, Łódź, Poland). The homogenate was then centrifuged at 4500 g for 10 min. All samples of the rat BP, CSF, and BT homogenate supernatant were stored at −80 °C until analysis.
The chromatographic analysis was conducted using a 1260 Infinity system (Agilent Technologies, Santa Clara, USA) equipped with a Kinetex® C18 column (50 × 4.6 mm, 2.6 μm, Phenomenex, Torrance, USA), which was maintained at 35 °C.

[1] = blood plasma, lapatinib 100 mg/kg oral + 5 mg/kg elacridar (IE+L)

AUMC0-t [1]: 480,290.03 ± 21,589.07 ng × h^2/mL
AUMC0-∞ [1]: 3,917,566.05 ± 1,363,043.99 ng × h^2/mL
t0.5 (blood plasma, lapatinib 100 mg/kg oral alone (IIL)): 5.58 ± 1.28 h
Clapatinib in BP, single rat (lapatinib 100 mg/kg + elacridar, 0.25 h): 860 ng/mL
Clapatinib in BP, single rat (lapatinib 100 mg/kg + elacridar, 0.5 h): 1355 ng/mL
Clapatinib in BP, single rat (lapatinib 100 mg/kg + elacridar, 1 h): 1900 ng/mL
Clapatinib in BP, single rat (lapatinib 100 mg/kg + elacridar, 2 h): 4045 ng/mL
Clapatinib in BP, single rat (lapatinib 100 mg/kg + elacridar, 3 h): 2880 ng/mL
Clapatinib in BP, single rat (lapatinib 100 mg/kg + elacridar, 4 h): 1033 ng/mL
Clapatinib in BP, single rat (lapatinib 100 mg/kg + elacridar, 6 h): 1310 ng/mL
Clapatinib in BP, single rat (lapatinib 100 mg/kg + elacridar, 8 h): 2790 ng/mL
Clapatinib in BP, single rat (lapatinib 100 mg/kg + elacridar, 12 h): 2315 ng/mL
Clapatinib in BP, single rat (lapatinib 100 mg/kg + elacridar, 24 h): 1170 ng/mL
Clapatinib in BP, single rat (lapatinib p.o. 100 mg/kg alone, 0.25 h, 100 mg/kg): 770 ng/mL
Clapatinib in BP, single rat (lapatinib p.o. 100 mg/kg alone, 0.5 h, 100 mg/kg): 1445 ng/mL
Clapatinib in BP, single rat (lapatinib p.o. 100 mg/kg alone, 1 h, 100 mg/kg): 2265 ng/mL
Clapatinib in BP, single rat (lapatinib p.o. 100 mg/kg alone, 2 h, 100 mg/kg): 2465 ng/mL
Clapatinib in BP, single rat (lapatinib p.o. 100 mg/kg alone, 3 h, 100 mg/kg): 1530 ng/mL and 3225 ng/mL
Clapatinib in BP, single rat (lapatinib p.o. 100 mg/kg alone, 4 h, 100 mg/kg): 2685 ng/mL
Clapatinib in BP, single rat (lapatinib p.o. 100 mg/kg alone, 6 h, 100 mg/kg): 2325 ng/mL
Clapatinib in BP, single rat (lapatinib p.o. 100 mg/kg alone, 8 h, 100 mg/kg): 1750 ng/mL
Clapatinib in BP, single rat (lapatinib p.o. 100 mg/kg alone, 12 h, 100 mg/kg): 955 ng/mL and 2055 ng/mL
Compound: CS(=O)(=O)CCNCc1ccc(-c2ccc3ncnc(Nc4ccc(OCc5cccc(F)c5)c(Cl)c4)c3c2)o1 [lapatinib, N-{3-Chloro-4-[(3-fluorobenzyl)oxy]phenyl}-6-[5-({[2-(methylsulfonyl)ethyl]amino}methyl)-2-furyl]-4-quinazolinamine]

Where “and” joins values, the source holds several entries; their conditions need not be identical. Identical values can stand only once.
